Experimental data as given in article PMC7703809 (ChemMedChem, 2020).
Non-standard residues stand in square brackets, D forms with d. Residues, ends and D or L forms follow the SMILES beside them. pT = C[C@@H](OP(=O)(O)O)[C@H](N)C(=O)O

Sequences of proteins named here, by UniProt entry; tags and fusion partners are left off. Residues count along the entry.
UniProt P53350, 367-603: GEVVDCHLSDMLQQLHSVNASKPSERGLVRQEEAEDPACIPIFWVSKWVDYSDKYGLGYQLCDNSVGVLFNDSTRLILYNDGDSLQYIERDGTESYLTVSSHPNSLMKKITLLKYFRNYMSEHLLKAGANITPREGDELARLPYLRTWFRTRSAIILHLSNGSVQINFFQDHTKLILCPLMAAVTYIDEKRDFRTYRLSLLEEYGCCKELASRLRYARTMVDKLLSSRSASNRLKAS

Target: PLK1 PBD (367–603) (Homo sapiens, UniProt P53350)
Experiment: Fluorescence polarization competitive binding assay, PLK1 PBD
Conditions: PLK1 vs PLK3 PBD, accounting for 5-fold difference in tracer affinity

## CC(=O)N1CCC[C@H]1C(=O)N[C@@H](CC(C)C)C(=O)N[C@@H](Cc1c[nH]cn1)C(=O)N[C@@H](CO)C(=O)N[C@H](C(=O)N[C@@H](C)C(=O)O)[C@@H](C)OP(=O)(O)O [Compound 6, Ac-PLHS[pT]A] (Ac-PLHS[pT]A-OH)
  Selectivity Index: >6500
